Measurements reported in patent US20050287594A1 (priority 2000, published 2005).

Chains of the proteins cited; added tags and fusions are not shown.
UniProt P97612, whole entry: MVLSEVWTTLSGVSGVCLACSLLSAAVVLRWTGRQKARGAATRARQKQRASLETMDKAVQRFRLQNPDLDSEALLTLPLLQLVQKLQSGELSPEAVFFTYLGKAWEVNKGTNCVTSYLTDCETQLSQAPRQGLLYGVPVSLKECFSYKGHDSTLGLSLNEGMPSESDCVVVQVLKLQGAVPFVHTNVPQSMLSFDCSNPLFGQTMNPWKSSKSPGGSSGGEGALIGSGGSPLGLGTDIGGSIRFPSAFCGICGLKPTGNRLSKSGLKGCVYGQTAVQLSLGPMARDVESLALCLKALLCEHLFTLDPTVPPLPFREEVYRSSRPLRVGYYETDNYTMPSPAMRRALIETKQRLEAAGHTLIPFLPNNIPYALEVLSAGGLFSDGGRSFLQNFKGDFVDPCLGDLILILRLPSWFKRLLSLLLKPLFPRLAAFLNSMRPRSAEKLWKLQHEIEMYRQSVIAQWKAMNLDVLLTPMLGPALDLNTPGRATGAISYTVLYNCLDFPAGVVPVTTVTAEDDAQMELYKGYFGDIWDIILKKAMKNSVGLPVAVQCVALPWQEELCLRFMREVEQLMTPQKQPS

Target: T1, fatty acid amide hydrolase (FAAH) (Rattus norvegicus, UniProt P97612)
T1 construct: from tissue; host or cells: rat brain membrane fraction
Format: binding

oleoyl trifluoromethyl ketone [OTFMK]
selectivity for FAAH among other brain membrane serine hydrolases: approximately one order of magnitude
